According to patent publication US20190183812A1, “Compounds For The Treatment Of Neuromuscular Disorders” (NMD PHARMA A/S, priority 2017, published 2019):

Target: T1, CIC-1 ion channels (Rattus norvegicus, UniProt P35524)
T1 construct: from tissue; host or cells: soleus muscle of adult (12-14 week old) Wistar rats
T1 sequence (P35524 1-994): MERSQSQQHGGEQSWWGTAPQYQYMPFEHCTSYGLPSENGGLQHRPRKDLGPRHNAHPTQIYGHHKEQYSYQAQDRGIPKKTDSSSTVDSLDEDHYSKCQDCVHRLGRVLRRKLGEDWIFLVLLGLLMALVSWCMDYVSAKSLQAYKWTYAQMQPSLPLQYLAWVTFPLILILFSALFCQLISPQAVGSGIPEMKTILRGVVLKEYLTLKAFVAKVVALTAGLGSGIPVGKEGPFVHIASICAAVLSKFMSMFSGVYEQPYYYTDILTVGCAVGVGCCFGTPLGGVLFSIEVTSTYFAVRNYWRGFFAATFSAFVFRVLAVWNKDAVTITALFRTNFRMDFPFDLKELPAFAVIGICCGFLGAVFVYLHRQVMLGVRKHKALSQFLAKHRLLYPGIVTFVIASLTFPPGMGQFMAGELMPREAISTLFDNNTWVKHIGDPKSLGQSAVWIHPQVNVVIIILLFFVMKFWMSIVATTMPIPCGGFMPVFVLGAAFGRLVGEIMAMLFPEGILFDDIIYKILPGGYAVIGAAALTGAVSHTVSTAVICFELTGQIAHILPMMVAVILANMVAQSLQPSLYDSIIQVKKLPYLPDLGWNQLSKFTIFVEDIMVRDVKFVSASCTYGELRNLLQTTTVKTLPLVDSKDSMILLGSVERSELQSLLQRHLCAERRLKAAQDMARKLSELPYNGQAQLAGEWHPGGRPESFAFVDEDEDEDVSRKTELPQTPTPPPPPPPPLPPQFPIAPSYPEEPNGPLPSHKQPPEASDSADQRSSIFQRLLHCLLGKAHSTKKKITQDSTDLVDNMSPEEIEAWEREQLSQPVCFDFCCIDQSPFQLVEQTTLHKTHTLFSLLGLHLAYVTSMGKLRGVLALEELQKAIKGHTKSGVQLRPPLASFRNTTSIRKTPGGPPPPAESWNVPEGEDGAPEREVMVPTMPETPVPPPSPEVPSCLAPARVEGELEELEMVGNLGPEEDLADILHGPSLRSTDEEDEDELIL
Experiment: Resting membrane conductance (Gm), three-electrode technique, rat muscle: Kd for CIC-1 inhibition
Type: cell-based
Settings: concentration that reduced Gm by 50%

SMILES: C[C@H](Oc1ccc(Br)cc1)C(=O)O [Compound C8, (2S)-2-(4-bromophenoxy)propanoic acid]
- Kd: 9 µM
